Measurements taken from patent US7056954B2, “Means for the modulation of processes mediated by retinoid receptors and compounds useful therefor” (The Salk Institute for Biological Studies, priority 1991, dated 2006).

How the values were obtained:
Rhino mouse = assay: Topical application, horn-filled utriculus size in the Rhino mouse; assay type: in vivo; conditions: 14 days; for Pilosebaceous structure size: vehicle control 178 μm
F9 cells = assay: F9 cell differentiation, tissue plasminogen activator activity; assay type: cell-based, mouse; conditions: concentration of 1 μM

SMILES | Pilosebaceous structure size (% red′n) (Rhino mouse; 0.01% topical) | Pilosebaceous structure size (Rhino mouse; 0.01% topical) [μm] | Pilosebaceous structure size (% red′n) (Rhino mouse; 0.1% topical) | Pilosebaceous structure size (Rhino mouse; 0.1% topical) [μm] | increased cellular activities of tPA (F9 cells)
CC1=C(/C=C/C(C)=C\C=C\C(C)=C\C(=O)O)C(C)(C)CCC1 | (−64%) | 72 | (−74%) | 52 | 0.48±0.05
CC1=C(/C=C/C(C)=C/C=C/C(C)=C/C(=O)O)C(C)(C)CCC1 [reference compound] | – | 50 | – | – | –
